Assay results from PubChem BioAssay AID588352 (The Scripps Research Institute Molecular Screening Center, 2011).
The list shows a part of the results, in another mix than the full data. Some of these compounds have results that are not shown, active ones among them. Calls of active or inactive are those of the source.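 How the source made its calls: active means inhibition above a per-campaign cutoff, the mean of all compounds plus 3 SD (cut at about 60% in these data); inactive means the rest.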

The chains behind the UniProt entries cited, without tags or fusion partners.
UniProt Q9Y6Q9, whole entry: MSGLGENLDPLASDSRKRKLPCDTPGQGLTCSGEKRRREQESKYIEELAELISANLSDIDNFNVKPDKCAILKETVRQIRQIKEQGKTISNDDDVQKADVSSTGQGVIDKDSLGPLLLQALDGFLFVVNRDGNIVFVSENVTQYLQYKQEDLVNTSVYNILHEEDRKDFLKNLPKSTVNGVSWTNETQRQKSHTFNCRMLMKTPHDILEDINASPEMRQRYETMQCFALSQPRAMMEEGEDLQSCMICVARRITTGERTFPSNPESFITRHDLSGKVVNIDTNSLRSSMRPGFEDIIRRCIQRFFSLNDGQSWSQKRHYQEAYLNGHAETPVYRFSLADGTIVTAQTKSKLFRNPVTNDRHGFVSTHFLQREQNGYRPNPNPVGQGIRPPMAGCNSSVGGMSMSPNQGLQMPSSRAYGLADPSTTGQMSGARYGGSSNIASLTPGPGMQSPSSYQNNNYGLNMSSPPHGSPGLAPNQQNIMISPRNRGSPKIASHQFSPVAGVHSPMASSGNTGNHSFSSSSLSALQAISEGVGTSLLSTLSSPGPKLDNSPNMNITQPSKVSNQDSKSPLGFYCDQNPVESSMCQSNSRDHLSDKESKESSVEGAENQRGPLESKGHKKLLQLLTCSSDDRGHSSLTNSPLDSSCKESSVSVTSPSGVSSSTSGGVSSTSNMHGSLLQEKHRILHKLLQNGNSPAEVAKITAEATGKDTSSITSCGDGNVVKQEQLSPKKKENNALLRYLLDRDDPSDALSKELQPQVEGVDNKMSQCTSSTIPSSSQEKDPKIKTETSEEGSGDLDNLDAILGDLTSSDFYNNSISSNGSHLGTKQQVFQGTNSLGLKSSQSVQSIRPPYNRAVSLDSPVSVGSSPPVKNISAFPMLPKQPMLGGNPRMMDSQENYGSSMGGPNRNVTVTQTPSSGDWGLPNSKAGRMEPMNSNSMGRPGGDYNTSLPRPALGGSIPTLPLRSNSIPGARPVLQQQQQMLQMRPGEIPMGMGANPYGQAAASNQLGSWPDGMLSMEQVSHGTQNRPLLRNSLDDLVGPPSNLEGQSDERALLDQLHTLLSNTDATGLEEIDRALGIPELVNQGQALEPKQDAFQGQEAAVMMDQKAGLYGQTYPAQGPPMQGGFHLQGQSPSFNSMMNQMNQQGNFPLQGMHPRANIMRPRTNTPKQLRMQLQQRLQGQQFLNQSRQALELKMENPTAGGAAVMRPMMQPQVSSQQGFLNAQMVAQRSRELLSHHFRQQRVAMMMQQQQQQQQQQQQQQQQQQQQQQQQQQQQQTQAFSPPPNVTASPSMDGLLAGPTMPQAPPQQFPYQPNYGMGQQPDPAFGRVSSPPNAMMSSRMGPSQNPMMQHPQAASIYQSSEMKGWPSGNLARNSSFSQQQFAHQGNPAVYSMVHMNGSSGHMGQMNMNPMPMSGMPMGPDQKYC

molecular target: Nuclear receptor coactivator 3 (Homo sapiens) (UniProt Q9Y6Q9); assay: SRC3 coactivator transcriptional activity inhibitors, primary screen, cell-based, luminescence (AID 588352); conditions: HEK293 GAL4-SRC3 luciferase reporter, at 3.6 µM, stronger effect = higher value;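 further: 0% = DMSO-treated cells and 100% = gossypol-treated cells at 36 µM; higher means less SRC3-driven luciferase light from the GAL4 reporter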

Row | SMILES | inhibition
1 | CCN1CCCC(OC(=O)C2(O)c3ccccc3C=Cc3ccccc32)C1 (stereo unspecified) | inactive: 11.2%
2 | Cc1cc(C(=O)NCC2(N3CCCCC3)CCCCC2)ccc1[N+](=O)[O-] | inactive: -13.7%
3 | O=C(NCC1(N2CCCCC2)CCCCC1)c1cccc(Br)c1 | inactive: -3.42%
4 | COc1ccc(C(=O)NCC2(N(C)C)CCCCC2)cc1 | inactive: -4.47%
5 | C=CCN1CCN(CCOC(=O)C(O)(c2ccccc2)c2ccccc2)CC1 | inactive: 1.03%
6 | O=C(NCC1(N2CCCCC2)CCCCC1)c1cc(F)c(F)cc1Cl | inactive: 4.47%
7 | Cc1ccccc1C(=O)NCC1(N2CCCCC2)CCCCC1 | inactive: -1.64%
8 | CN(C)c1ccc(C(=O)NCC2(N(C)C)CCCCC2)cc1 | inactive: -50.5%
9 | CN(C)C1CCCC1OC(=O)C(O)(c1ccccc1)c1ccccc1 (stereo unspecified) | inactive: 0.86%
10 | Cc1ccc(C(=O)NCC2(N3CCCCC3)CCCCC2)cc1 | inactive: -14%
11 | CC(C)N1C(=O)CC2(CCN(CCOC(=O)C(O)(c3ccccc3)c3ccccc3)CC2)C1=O | inactive: 22.6%
12 | CCN(CC)CC(C)C(C)OC(=O)C(O)(c1ccccc1)c1ccccc1 (stereo unspecified) | inactive: 5.46%
13 | COc1cc(SC)ccc1C(=O)NCC1(N(C)C)CCCCC1 | inactive: -5.32%
14 | CN1[C@@H]2CC[C@H]1CC(OC(=O)C(O)(c1ccccc1)c1ccccc1)C2 (stereo partly specified) | inactive: -2.72%
15 | O=C(NCC1(N2CCCCC2)CCCCC1)c1cc([N+](=O)[O-])ccc1Cl | inactive: 26.5%
16 | CN(C)c1cccc(C(=O)NCC2(N(C)C)CCCCC2)c1 | inactive: 19.2%
17 | CC(C)Oc1ccc(C(=O)NCC2(N(C)C)CCCCC2)cc1 | inactive: -19.3%
18 | O=C(OCCN1CCCC1)C(O)(c1ccccc1)c1ccccc1 | inactive: -21.4%
19 | COc1ccc(Br)c(C(=O)NCC2(N3CCCCC3)CCCCC2)c1 | inactive: 4.38%
20 | C=C(C)C#CC(O)(C(=O)OC1CCN(C)CC1)c1ccccc1 (stereo unspecified) | inactive: -0.86%
21 | O=C(OC1CN2CCC1CC2)C(CO)(c1ccccc1)c1ccccc1 (stereo unspecified) | inactive: 1.69%
22 | O=C(NCC1(N2CCCCC2)CCCCC1)c1cccc(Cl)c1 | inactive: -7.1%
23 | COc1cccc(C(=O)NCC2(N3CCCCC3)CCCCC2)c1 | inactive: -7.72%
24 | COc1ccc(Cl)cc1C(=O)NCC1(N(C)C)CCCCC1 | inactive: -11.3%
25 | COc1cc(C(=O)NCC2(N(C)C)CCCCC2)c([N+](=O)[O-])cc1OC | inactive: -4.55%
26 | CN(C)C1(CNC(=O)c2ccc(Br)cc2)CCCCC1 | inactive: -1.61%
